Legend:
[1] = target: T1, Multidrug and toxin extrusion protein 1 (Homo sapiens, UniProt Q96FL8); experiment: Substrate activity at MATE1 (unknown origin) expressed in HEK293 cells assessed as ratio of uptake by the enantiomer with higher value to enantiomer with lower value at […] measured after 1 min by HPLC-MS/MS analysis; format: cell-based; conditions: hek293, 1 min, dose 2.5 µM
T1 sequence (Q96FL8 whole entry): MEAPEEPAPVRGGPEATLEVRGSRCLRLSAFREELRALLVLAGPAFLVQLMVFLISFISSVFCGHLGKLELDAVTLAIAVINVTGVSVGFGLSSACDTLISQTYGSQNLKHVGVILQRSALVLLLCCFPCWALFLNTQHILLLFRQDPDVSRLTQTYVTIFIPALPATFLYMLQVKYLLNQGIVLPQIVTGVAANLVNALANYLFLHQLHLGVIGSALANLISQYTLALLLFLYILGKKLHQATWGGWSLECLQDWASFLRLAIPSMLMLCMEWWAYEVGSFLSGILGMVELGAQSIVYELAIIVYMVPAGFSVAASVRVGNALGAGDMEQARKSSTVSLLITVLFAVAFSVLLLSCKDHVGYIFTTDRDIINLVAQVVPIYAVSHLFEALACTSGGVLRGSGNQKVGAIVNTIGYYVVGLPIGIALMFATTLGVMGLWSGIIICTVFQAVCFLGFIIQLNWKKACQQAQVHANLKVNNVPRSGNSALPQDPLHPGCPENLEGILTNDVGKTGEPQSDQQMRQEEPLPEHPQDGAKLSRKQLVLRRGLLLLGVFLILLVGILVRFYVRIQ

[2] = target: T2, Multidrug and toxin extrusion protein 2 (Homo sapiens, UniProt Q86VL8); experiment: Substrate activity at MATE2-K (unknown origin) expressed in HEK293 cells assessed as ratio of uptake by the enantiomer with higher value to enantiomer with lower value at […] measured after 1 min by HPLC-MS/MS analysis; format: cell-based; conditions: hek293, 1 min, dose 2.5 µM
T2 sequence (Q86VL8 whole entry): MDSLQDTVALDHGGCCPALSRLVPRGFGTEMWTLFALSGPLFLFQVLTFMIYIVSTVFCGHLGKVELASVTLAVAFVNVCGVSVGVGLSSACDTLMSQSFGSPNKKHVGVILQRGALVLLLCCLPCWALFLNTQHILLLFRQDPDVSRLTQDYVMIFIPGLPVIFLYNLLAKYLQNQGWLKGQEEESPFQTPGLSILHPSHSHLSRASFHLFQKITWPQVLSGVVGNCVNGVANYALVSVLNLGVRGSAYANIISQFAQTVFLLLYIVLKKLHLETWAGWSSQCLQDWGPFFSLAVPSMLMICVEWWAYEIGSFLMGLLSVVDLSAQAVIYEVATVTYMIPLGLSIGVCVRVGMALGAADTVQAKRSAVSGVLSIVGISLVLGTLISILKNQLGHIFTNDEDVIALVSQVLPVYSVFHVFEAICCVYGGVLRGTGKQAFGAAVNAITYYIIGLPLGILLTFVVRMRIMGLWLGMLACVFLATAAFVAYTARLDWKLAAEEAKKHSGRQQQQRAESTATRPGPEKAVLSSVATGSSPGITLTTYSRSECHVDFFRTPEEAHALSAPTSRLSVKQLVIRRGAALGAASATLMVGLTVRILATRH

[3] = target: T3, MATE1 (Homo sapiens, UniProt Q96FL8); experiment: in vitro
T3 sequence (Q96FL8 whole entry): T1 sequence (Q96FL8 whole entry)

[4] = target: T4, MATE2-K (Homo sapiens, UniProt Q86VL8); experiment: in vitro
T4 sequence (Q86VL8 whole entry): T2 sequence (Q86VL8 whole entry)

[5] = target: T1, Multidrug and toxin extrusion protein 1; experiment: Substrate activity at MATE1 (unknown origin) expressed in HEK293 cells assessed as intrinsic clearance by measuring ratio of Vmax (maximum transport velocity) over Km measured per mg of protein by HPLC-MS/MS analysis; format: cell-based
[6] = target: T2, Multidrug and toxin extrusion protein 2; experiment: Substrate activity at MATE2-K (unknown origin) expressed in HEK293 cells assessed as intrinsic clearance by measuring ratio of Vmax (maximum transport velocity) over Km measured per mg of protein by HPLC-MS/MS analysis; format: cell-based
[7] = substrate: Cc1ncc(C[n+]2csc(CCO)c2C)c(N)n1; experiment: not read

Molecule: CCNC(C)Cc1cccc(C(F)(F)F)c1 (racemic) [FENFLURAMINE]
- Ratio [1]: > 1
- Ratio [2]: > 1

Molecule: CC(C)(C)NCC(O)COc1nsnc1N1CCOCC1 (racemic)
- Ratio [1]: > 1
- Ratio [2]: > 1

Molecule: CCN1CCCC1CNC(=O)c1cc(S(N)(=O)=O)ccc1OC (stereo not drawn) [SULPIRIDE]
- uptake ratio at 1 min, […] [3]: > 2
- uptake ratio at 1 min, […] [4]: > 2

Molecule: CC(C)(C)NC[C@H](O)COc1nsnc1N1CCOCC1 [TIMOLOL]
- uptake ratio at 1 min, […] [3]: < 2
- uptake ratio at 1 min, […] [4]: < 2

Molecule: C#CCN(C)C(C)Cc1ccccc1 (racemic)
- Ratio [1]: > 1
- Ratio [2]: > 1

Molecule: CNS(=O)(=O)Cc1ccc2[nH]cc(CCN(C)C)c2c1
- CL [5]: 59.4 µL/min
- CL [6]: 24 µL/min

B1: Multidrug and toxin extrusion protein 2 (Homo sapiens) (protein)
chain: T2 sequence (Q86VL8 whole entry)
- Km [7]: 17.3 µM

Source: ChEMBL document CHEMBL6182944, “Substrate Specificity of the Organic Cation Transporters MATE1 and MATE2K and Functional Overlap with OCT1 and OCT2” (J Med Chem, 2025)
